# According to patent US10030064B2, “Mammalian cell culture processes for protein production” (priority 2009, dated 2018):
# Tests used:
# [1] = tested on: CHO DG44 cell line expressing the fusion glycoprotein; experiment: Shake flask CHO culture: total sialic acid content, N-linked and O-linked oligosaccharide profile of the secreted fusion glycoprotein; format: cell-based, Chinese hamster
# Description: The CHO cell line used in this study was originally subcloned from DG44 parental cells and cultured in a proprietary protein-free growth medium.
# The experiments were carried out in 250-mL shake flasks (VWR international) with starting volumes of 100 mL and initial cell densities of 6×10^5 cells/mL. The cultures were placed on a shaker platform (VWR international) at 150 rpm and maintained at 37° C. and 6% CO2 for ten days. The cultures were sampled daily and the pH was adjusted as needed using 1M sodium carbonate and fed with glucose and glutamine every two days in order to maintain them at adequate levels. Cell density and viability were measured offline using a Cedex automated cell counter (Innovatis AG, Bielefeld, Germany). Culture pH and concentrations for glucose and glutamine were measured off-line using a Bioprofile Analyzer 400 (Nova Biomedical Corporation, Waltham, Mass.).
# The sialic acid to recombinant protein molar ratio was calculated by determining the sialic acid and recombinant protein concentrations. […] The protein concentrations were determined by UV absorbance at 280 nm. […]
# This study was performed in duplicate 250-mL shake flasks using the culture conditions as described above. […] Cultures were harvested on day 10, and the fusion protein was purified using a protein A column and analyzed for total sialic acid content, O-linked sialic acid content and the N-linked profile.
# [2] = tested on: GILZ (glucocorticoid-induced leucine zipper); experiment: qRT-PCR of GILZ gene expression in CHO cells; format: cell-based, Chinese hamster
# Description: TaqMan® 5′-nuclease real-time quantitative RT-PCR assay was performed to verify the upregulation of GILZ by DEX. Total RNA, purified from each triplicate culture with and without 1 μM DEX using the RNeasy® midi kit as described above. Purified RNA was treated with RNasefree DNaseI (Qiagen) and then used as a template to synthesize the first-strand cDNA using RT^2 First Strand Kit (SA Biosciences, Frederick, Md.). Expression of GILZ was quantitatively determined using GILZ specific TaqMan MGB probe (6-FAM-AGAGGACTTCACGTGT) and primers (Forward: 5-[…]-3 and Reverse: 5-TGGTGGGTTTGGCATTCAA-3). 20 ng of cDNA was amplified using 900 nM primers and 250 nM probe in 1× TaqMan Fast Universal PCR Master Mix (Applied Biosystems, Carlsbad, Calif.). Reactions were run in triplicate on the Applied Biosystems 7500 Fast Real-Time PCR System using the universal cycling parameters (20 s 95° C., 40 cycles of 3 s 95° C., 30 s 60° C.). Parallel reactions were set up on the same plate analyzing β-Actin in each sample as an endogenous control. The threshold cycle of each gene was normalized against the threshold cycle of “housekeeping gene” […]. Normalized changes in gene expression with respect to the control were calculated using delta-delta threshold cycle method (Livak and Schmittgen, 2001).
# GILZ was analyzed using qRT-PCR to validate the gene expression profiles obtained by microarray analysis. RNA samples from day 5 and 8 for triplicate DEX treated and untreated cultures were applied in TaqMan® qPCR quantification. Parallel reactions were set up on the same plate analyzing β-Actin in each sample as an endogenous control.
structure (smiles),measurement,setting,value
"C[C@@H]1C[C@H]2[C@@H]3CCC4=CC(=O)C=C[C@]4(C)[C@@]3(F)[C@@H](O)C[C@]2(C)[C@@]1(O)C(=O)CO [DEX, dexamethasone]",normalized total sialic acid content,"[1]; 0.1 μM DEX, without RU-486",15.1±0.1
same,Percent increase of N-link-Tri and tetra-,"[1]; DEX 1.0 μM added day 2, harvest day 10",15.9%
same,fold change of GILZ gene expression,"[2]; 0.1 μM DEX, with 1 μM RU-486",1.8±0.9
same,fold change of GILZ gene expression,"[2]; 0.1 μM DEX, without RU-486",9.0±1.9
same,fold change of GILZ gene expression,"[2]; 1 μM DEX, with 1 μM RU-486",2.3±1.0
same,fold change of GILZ gene expression,"[2]; 1 μM DEX, without RU-486",11.3±3.0
